Reference: patent US20240301324A1, “COMPOSITION” (Croda International Plc, priority 2021, published 2024)

Test system: zein protein
Assay: Zein solubilisation (mildness to skin)
Conditions: 10% active solution of SLES, before addition of CAPB

zein solubilisation percentage: 90%
Substance: Sodium Lauryl Ether Sulphate [SLES]
